Source: ChEMBL document CHEMBL5055621, “Synthesis and Characterization of the Novel Rodent-Active and CNS-Penetrant P2X7 Receptor Antagonist Lu AF27139” (J Med Chem, 2021)

By UniProt entry, the sequences of proteins in these tests, tags left out. Where a name states a change or a piece, a line headed by the entry shows the natural chain unless it says otherwise.
UniProt Q99572: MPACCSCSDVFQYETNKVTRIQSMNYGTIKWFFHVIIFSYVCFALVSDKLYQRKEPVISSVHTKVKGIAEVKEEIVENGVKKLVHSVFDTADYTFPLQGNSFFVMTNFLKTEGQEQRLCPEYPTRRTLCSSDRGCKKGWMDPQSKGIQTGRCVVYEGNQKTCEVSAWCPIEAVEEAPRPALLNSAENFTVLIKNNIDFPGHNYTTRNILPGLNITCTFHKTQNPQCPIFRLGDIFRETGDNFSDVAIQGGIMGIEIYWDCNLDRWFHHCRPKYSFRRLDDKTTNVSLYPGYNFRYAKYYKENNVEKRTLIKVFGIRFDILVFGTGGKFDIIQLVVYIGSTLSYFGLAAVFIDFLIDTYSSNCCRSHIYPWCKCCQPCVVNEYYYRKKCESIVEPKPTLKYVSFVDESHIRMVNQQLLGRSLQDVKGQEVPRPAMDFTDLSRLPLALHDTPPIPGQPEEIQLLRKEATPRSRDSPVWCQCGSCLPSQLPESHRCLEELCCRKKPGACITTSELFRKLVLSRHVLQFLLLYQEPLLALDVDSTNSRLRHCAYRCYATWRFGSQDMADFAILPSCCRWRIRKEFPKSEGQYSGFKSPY

How the values were obtained:
P2X purinoceptor 7 [1] = molecular target: T1, P2X purinoceptor 7 (Homo sapiens, UniProt Q99572); test: Antagonist activity at human P2X7 receptor expressed in HEK293 cells assessed as inhibition of BzATP-induced calcium-flux measured after 60 mins by FLIPR analysis; assay type: cell-based
P2X purinoceptor 7 [2] = molecular target: T2, P2X purinoceptor 7 (Mus musculus, UniProt Q9Z1M0); test: Antagonist activity at mouse P2X7 receptor expressed in HEK293 cells assessed as inhibition of BzATP-induced calcium-flux measured after 60 mins by FLIPR analysis; assay type: cell-based
T2 sequence (Q9Z1M0 whole entry): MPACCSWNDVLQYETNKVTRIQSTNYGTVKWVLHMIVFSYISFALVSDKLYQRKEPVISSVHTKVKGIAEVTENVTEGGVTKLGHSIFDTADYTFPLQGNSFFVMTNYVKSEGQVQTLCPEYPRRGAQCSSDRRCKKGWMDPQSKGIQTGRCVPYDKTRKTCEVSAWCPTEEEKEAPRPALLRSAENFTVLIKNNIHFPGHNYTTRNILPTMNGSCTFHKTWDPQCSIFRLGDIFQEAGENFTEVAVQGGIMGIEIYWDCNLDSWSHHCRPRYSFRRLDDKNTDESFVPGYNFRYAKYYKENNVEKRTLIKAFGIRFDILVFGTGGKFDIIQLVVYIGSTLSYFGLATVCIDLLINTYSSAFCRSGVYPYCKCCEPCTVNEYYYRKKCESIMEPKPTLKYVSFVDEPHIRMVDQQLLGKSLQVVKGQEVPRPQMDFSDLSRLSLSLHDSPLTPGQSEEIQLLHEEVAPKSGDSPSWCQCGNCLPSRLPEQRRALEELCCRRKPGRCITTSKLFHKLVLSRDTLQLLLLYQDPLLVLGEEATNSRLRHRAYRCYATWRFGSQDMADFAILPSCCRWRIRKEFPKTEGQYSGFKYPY
How it was run: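 Stable rat or mouse P2X7 HEK293 cells in HBSS/20 mM HEPES/2.5 mM probenecid/0.05% BSA, pH 7.4, were loaded with Fluo-4 NW (37 °C 30 min, RT 30 min). Antagonist was preincubated before EC80 BzATP (rat 15 μM). After 30 min at RT, calcium fluorescence was read by FLIPR; n ≥ 3.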

P2X purinoceptor 7 [3] = molecular target: T1, P2X purinoceptor 7; test: Displacement of [3H]-A-804598 from human P2X7 receptor expressed in HEK293 cell membrane by in vitro binding assay; assay type: cell membranes
P2X purinoceptor 7 [4] = molecular target: T2, P2X purinoceptor 7; test: Displacement of [3H]-A-804598 from mouse P2X7 receptor expressed in HEK293 cell membrane by in vitro binding assay; assay type: cell membranes
How it was run: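 Binding used membranes from P2X7-transfected HEK293 cells (rat 10 μg, human 40 μg, mouse 60 μg per well) with [3H]-A-804598.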

IC50 (P2X purinoceptor 7 [1]): 0.032 µM | IC50 (P2X purinoceptor 7 [2]): 0.034 µM | Ki (P2X purinoceptor 7 [3]): 0.0089 µM | Ki (P2X purinoceptor 7 [4]): 0.06 µM
SMILES: C[C@H](N/C(=N/C#N)Nc1cccc2ncccc12)c1ccccc1
